# According to IntAct's records for PubMed 35512704:
# B1: RAC-alpha serine/threonine-protein kinase (Homo sapiens), P31749 (parent)
# chain: MSDVAIVKEGWLHKRGEYIKTWRPRYFLLKNDGTFIGYKERPQDVDQREAPLNNFSVAQCQLMKTERPRPNTFIIRCLQWTTVIERTFHVETPEEREEWTTAIQTVADGLKKQEEEEMDFRSGSPSDNSGAEEMEVSLAKPKHRVTMNEFEYLKLLGKGTFGKVILVKEKATGRYYAMKILKKEVIVAKDEVAHTLTENRVLQNSRHPFLTALKYSFQTHDRLCFVMEYANGGELFFHLSRERVFSEDRARFYGAEIVSALDYLHSEKNVVYRDLKLENLMLDKDGHIKITDFGLCKEGIKDGATMKTFCGTPEYLAPEVLEDNDYGRAVDWWGLGVVMYEMMCGRLPFYNQDHEKLFELILMEEIRFPRTLGPEAKSLLSGLLKKDPKQRLGGGSEDAKEIMQHRFFAGIVWQHVYEKKLSPPFKPQVTSETDTRYFDEEFTAQMITITPPDQDDSMECVDSERRPHFPQFSYSASGTA
# partner: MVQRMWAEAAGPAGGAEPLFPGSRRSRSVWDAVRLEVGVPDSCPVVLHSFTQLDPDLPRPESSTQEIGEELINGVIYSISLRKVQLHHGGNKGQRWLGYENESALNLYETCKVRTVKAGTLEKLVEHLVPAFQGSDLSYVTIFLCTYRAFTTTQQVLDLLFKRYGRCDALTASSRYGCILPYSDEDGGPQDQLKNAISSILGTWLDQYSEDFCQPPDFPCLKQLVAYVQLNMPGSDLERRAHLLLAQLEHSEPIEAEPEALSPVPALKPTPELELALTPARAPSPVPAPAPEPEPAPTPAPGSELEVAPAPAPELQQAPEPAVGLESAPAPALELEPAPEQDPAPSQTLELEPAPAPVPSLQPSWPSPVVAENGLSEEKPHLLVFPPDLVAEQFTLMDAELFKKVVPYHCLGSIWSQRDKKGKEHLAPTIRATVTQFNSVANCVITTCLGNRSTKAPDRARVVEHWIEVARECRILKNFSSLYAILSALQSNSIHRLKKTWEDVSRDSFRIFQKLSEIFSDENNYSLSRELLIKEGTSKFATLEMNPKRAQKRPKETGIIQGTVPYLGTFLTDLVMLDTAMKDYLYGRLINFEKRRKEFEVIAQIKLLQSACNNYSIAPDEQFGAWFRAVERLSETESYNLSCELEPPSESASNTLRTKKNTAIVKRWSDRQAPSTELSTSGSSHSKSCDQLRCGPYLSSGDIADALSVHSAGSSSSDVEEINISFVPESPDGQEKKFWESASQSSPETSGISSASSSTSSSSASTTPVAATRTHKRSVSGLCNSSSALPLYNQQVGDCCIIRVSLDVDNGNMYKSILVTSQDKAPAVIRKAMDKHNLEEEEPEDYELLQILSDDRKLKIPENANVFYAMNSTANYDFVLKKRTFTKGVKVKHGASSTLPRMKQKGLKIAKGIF
# B2: RAC-alpha serine/threonine-protein kinase (Homo sapiens), P31749 (parent)
# chain: B1 chain
# partner: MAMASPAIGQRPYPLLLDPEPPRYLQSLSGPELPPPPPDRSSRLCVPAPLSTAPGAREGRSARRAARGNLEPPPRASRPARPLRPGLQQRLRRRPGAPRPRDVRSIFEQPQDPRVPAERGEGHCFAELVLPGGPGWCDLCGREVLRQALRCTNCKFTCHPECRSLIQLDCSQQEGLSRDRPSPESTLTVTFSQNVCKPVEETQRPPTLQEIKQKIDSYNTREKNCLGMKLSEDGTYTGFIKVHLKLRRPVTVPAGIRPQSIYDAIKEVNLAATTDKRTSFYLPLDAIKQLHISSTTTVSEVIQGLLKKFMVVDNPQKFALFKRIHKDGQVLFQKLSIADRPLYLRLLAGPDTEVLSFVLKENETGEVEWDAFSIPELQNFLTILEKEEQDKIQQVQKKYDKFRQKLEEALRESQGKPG
# B3: RAC-alpha serine/threonine-protein kinase (Homo sapiens), P31749 (parent)
# chain: B1 chain
# partner: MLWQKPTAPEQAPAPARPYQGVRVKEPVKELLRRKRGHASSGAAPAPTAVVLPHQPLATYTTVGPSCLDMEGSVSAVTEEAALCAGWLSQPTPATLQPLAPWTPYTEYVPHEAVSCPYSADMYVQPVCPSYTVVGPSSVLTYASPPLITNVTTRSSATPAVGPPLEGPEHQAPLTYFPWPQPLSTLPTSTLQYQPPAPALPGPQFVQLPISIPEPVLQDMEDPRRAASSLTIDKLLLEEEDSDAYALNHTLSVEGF
# B4: RAC-alpha serine/threonine-protein kinase (Homo sapiens), P31749 (parent)
# chain: B1 chain
# partner: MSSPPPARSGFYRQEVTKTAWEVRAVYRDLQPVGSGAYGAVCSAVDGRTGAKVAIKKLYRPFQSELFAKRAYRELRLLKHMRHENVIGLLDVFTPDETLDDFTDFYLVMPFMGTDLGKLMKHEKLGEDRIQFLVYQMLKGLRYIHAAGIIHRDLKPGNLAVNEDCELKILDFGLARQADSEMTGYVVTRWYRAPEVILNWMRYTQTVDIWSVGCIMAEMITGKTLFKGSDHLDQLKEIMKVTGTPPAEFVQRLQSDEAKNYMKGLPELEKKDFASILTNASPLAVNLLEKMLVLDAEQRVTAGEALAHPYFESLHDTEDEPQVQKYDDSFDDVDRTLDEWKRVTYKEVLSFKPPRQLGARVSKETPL
# B5: RAC-alpha serine/threonine-protein kinase (Homo sapiens), P31749 (parent)
# chain: B1 chain
# partner: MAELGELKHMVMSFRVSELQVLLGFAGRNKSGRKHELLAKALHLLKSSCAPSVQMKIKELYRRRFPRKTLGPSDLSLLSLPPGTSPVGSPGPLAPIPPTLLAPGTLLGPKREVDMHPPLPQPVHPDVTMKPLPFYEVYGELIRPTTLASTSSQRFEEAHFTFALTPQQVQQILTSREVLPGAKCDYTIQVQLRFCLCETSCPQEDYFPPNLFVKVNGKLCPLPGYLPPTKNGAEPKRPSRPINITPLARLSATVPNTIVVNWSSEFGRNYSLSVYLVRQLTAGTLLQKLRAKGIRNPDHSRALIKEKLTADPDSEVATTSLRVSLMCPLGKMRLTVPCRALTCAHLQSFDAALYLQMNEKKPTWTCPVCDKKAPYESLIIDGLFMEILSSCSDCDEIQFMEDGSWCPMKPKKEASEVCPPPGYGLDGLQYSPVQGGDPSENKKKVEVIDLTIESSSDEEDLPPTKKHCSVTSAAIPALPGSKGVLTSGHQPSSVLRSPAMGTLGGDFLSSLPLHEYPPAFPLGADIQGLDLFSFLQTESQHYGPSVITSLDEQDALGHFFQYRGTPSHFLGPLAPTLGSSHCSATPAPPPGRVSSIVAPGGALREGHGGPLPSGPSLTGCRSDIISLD
# Variants of: B1
# Settings: with gnds_human RALGDS
row,effect of a mutation on the interaction,Variant
1,causing an interaction,E17K

# Variants of: B2
# Settings: with rasf5_human RASSF5, Q8WWW0
row,effect of a mutation on the interaction,Variant
1,causing an interaction,E17K

# Variants of: B2
# Settings: with rasf5_human RASSF5, Q8WWW0
# Remark: another data set of the same source
row,effect of a mutation on the interaction,Variant
1,increasing interaction strength,E17K

# Variants of: B3
# Settings: with obf1_human POU2AF1, Q16633
row,effect of a mutation on the interaction,Variant
1,causing an interaction,E17K

# Variants of: B3
# Settings: with obf1_human POU2AF1, Q16633
# Remark: another data set of the same source
row,effect of a mutation on the interaction,Variant
1,increasing interaction strength,E17K

# Variants of: B4
# Settings: with mk12_human MAPK12, P53778
row,effect of a mutation on the interaction,Variant
1,causing an interaction,E17K

# Variants of: B5
# Settings: with pias3_human PIAS3, Q9Y6X2
row,effect of a mutation on the interaction,Variant
1,causing an interaction,E17K
